The values that follow come from PMC11259064, “Enhanced binding of guanylated poly(A) RNA by the LaM domain of LARP1” (RNA Biology, 2024).

The test has as its target T1, human LARP1 LaM domain (residues 323–410) (Homo sapiens, UniProt Q6PKG0).
T1 construct: human LARP1 LaM domain (residues 323–410); made in house; host or cells: E. coli
Briefly: Isothermal titration calorimetry (ITC) of RNA ligands binding LARP1 (323-410). The settings on record: 20°C, LaM 20-30 µM in cell, RNA 300 µM in syringe, single set of identical sites. The protocol: ITC experiments were performed on the VP-ITC titration calorimeter (Malvern Instruments Ltd) except where noted. […] All experiments were carried out at 20°C with 29 injections of 10 µl. Results were analysed using ORIGIN software (MicroCal) and fitted to a binding model with a single set of identical sites, except where noted.
(In general: In ITC the heat of successive injections is recorded.)

pKd: −log10 of the molar value.

A word on the pKd: it is −log10 of the Kd, conventionally taken in molar units. Read a high pKd as a low Kd. For the substance 5´-APAPAPAPGPA-3´ [AAAAGA], the negative-log Kd (pKd) is 7.10.
